Assay results taken from patent US20090286723A1.

Chains of the proteins cited; added tags and fusions are not shown. Residues count along the entry.
UniProt P32301, 22-463 limits assumed: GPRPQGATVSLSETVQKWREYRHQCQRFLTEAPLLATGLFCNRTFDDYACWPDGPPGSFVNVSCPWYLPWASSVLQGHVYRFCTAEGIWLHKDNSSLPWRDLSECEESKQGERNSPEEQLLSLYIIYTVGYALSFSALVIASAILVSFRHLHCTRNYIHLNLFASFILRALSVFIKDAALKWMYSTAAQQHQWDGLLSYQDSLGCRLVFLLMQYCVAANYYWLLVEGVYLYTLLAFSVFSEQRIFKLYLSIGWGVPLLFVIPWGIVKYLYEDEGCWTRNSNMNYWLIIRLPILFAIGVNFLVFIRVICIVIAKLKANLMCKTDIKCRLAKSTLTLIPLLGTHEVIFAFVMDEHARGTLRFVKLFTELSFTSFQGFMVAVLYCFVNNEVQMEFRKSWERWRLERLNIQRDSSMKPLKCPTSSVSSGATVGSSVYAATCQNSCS

What was measured:
Assay in all cases: cell-based or functional assay
[1] = biological target: GLP-1/GIP/CT (receptors read by the GLP-1/GIP/CT cyclase assay)
calcitonin receptor = biological target: calcitonin receptor
[2] = biological target: GLP-1 receptor (RINm5F cell membranes) (UniProt P32301)

Substance | Receptor Activation: GLP-1/GIP/CT cyclase [1] | Receptor Activation: CT cyclase (calcitonin receptor) | Receptor Activation: GLP1 cyclase [2]
[Ac-alpha-MSH-(bAla)-(bAla)-Lys#] [Exendin-4-(1-28)-(bAla)-(bAla)-Lys(#Cys), amide] (peptide) | 13 |  | 
Exendin-4-(1-28)-bAla-bAla-Rat Amylin, amide (peptide) |  | 108 | 5.8
